In patent publication US20250312469A1 (CANGET BIOTEKPHARMA, priority 2024, published 2025):

Details: for MCH % Diff: Day 15, vs Group 1
[1] = female rats, Group 2, 3 mg/kg/wk oral, Day 15
[2] = female rats, Group 2, 3 mg/kg/wk oral, Day 15, vs vehicle Group 1
[3] = female rats, Group 3, 3.75/2.5 mg/kg/wk oral, Day 15, vs vehicle Group 1
[4] = female rats, Group 4, 4.69/2 mg/kg/wk oral, Day 15, vs vehicle Group 1
[5] = male rats, Group 2, 3 mg/kg/wk oral, Day 15
[6] = male rats, Group 2, 3 mg/kg/wk oral, Day 15, vs vehicle Group 1
[7] = male rats, Group 3, 3.75/2.5 mg/kg/wk oral, Day 15, vs vehicle Group 1

SMILES: CCC1(O)C(=O)OCc2c1cc1n(c2=O)Cc2cc3cc4c(cc3nc2-1)OCO4 (centres unmarked) [FL118]
- #BASO, basophils, absolute, Mean [1]: 0.01 10^3/μL
- #EOS, eosinophils, absolute, Mean [1]: 0.06 10^3/μL
- #LYMP, lymphocytes, absolute, Mean [1]: 5.86 10^3/μL
- #MONO, monocytes, absolute, Mean [1]: 0.13 10^3/μL
- #NEUT, neutrophils, absolute, Mean [1]: 0.57 10^3/μL
- % BASO, basophils, percent, Mean [1]: 0.2%
- % EOS, eosinophils, percent, Mean [1]: 1.1%
- % LYMP, lymphocytes, percent, Mean [1]: 87.1%
- % MONO, monocytes, percent, Mean [1]: 1.9%
- % NEUT, neutrophils, percent, Mean [1]: 9.1%
- % RET, reticulocytes, percent, Mean [1]: 4.27%
- ALB, albumin, Mean [1]: 35.7 g/L
- ALP, alkaline phosphatase, Mean [1]: 101 U/L
- ALT, alanine aminotransferase, Mean [1]: 32 U/L
- AST, aspartate aminotransferase, Mean [1]: 137 U/L
- BIL-T, total bilirubin, Mean [1]: 1.96 µmol/L
- CK, creatine kinase, Mean [1]: 537 U/L
- CRE, creatinine, Mean [1]: 24 µmol/L
- Ca, calcium, Mean [1]: 2.41 mmol/L
- GLB, globulin, Mean [1]: 22.7 g/L
- HCT, hematocrit, Mean [1]: 40.4%
- HGB, hemoglobin, Mean [1]: 13.5 g/dL
- K, potassium, Mean [1]: 4.5 mmol/L
- MCH, mean corpuscular hemoglobin, Mean [1]: 18.6 pg
- MCHC, mean corpuscular hemoglobin concentration, Mean [1]: 33.4 g/dL
- MCV, mean corpuscular volume, Mean [1]: 55.8 fL
- Na, sodium, Mean [1]: 142 mmol/L
- P, inorganic phosphorus, Mean [1]: 2.16 mmol/L
- PLT, platelet count, Mean [1]: 1310 10^3/μL
- RBC, red blood cell, Mean [1]: 7.25 10^6/μL
- RDW, RBC distribution width, Mean [1]: 12.5* %
- TCHO, total cholesterol, Mean [1]: 1.54 mmol/L
- TG, triglyceride, Mean [1]: 0.24 mmol/L
- TP, total protein, Mean [1]: 58.4 g/L
- UREA, urea, Mean [1]: 7.24 mmol/L
- WBC, white blood cell, Mean [1]: 6.67 10^3/μL
- sGLU, glucose, Mean [1]: 8.47 mmol/L
- #BASO, basophils, absolute, % Diff [2]: −16.67%
- #EOS, eosinophils, absolute, % Diff [2]: −11.76%
- #LYMP, lymphocytes, absolute, % Diff [2]: −9.52%
- #MONO, monocytes, absolute, % Diff [2]: −9.59%
- #NEUT, neutrophils, absolute, % Diff [2]: 1.42%
- #RET, reticulocytes, absolute, % Diff [2]: 70.3%
- % BASO, basophils, percent, % Diff [2]: 33.3%
- % EOS, eosinophils, percent, % Diff [2]: 12.5%
- % LYMP, lymphocytes, percent, % Diff [2]: −1.3%
- % MONO, monocytes, percent, % Diff [2]: −1.0%
- % NEUT, neutrophils, percent, % Diff [2]: 14.0%
- % RET, reticulocytes, percent, % Diff [2]: 74.92%
- ALB, albumin, % Diff [2]: −4.9%
- ALP, alkaline phosphatase, % Diff [2]: −3%
- ALT, alanine aminotransferase, % Diff [2]: −5%
- AST, aspartate aminotransferase, % Diff [2]: 27%
- BIL-T, total bilirubin, % Diff [2]: 13.44%
- CK, creatine kinase, % Diff [2]: 34%
- CRE, creatinine, % Diff [2]: 3%
- Ca, calcium, % Diff [2]: −2.12%
- Cl, chloride, % Diff [2]: 1%
- GLB, globulin, % Diff [2]: −4.2%
- HCT, hematocrit, % Diff [2]: −2.5%
- HGB, hemoglobin, % Diff [2]: −3.8%
- K, potassium, % Diff [2]: 0.0%
- MCH, mean corpuscular hemoglobin, % Diff [2]: −1.8%
- MCHC, mean corpuscular hemoglobin concentration, % Diff [2]: −1.2%
- MCV, mean corpuscular volume, % Diff [2]: −0.6%
- MPV, mean platelet volume, % Diff [2]: 1.5%
- Na, sodium, % Diff [2]: 0%
- P, inorganic phosphorus, % Diff [2]: 3.35%
- PLT, platelet count, % Diff [2]: 19%
- RBC, red blood cell, % Diff [2]: −1.92%
- RDW, RBC distribution width, % Diff [2]: 14.9%
- TCHO, total cholesterol, % Diff [2]: 1.99%
- TG, triglyceride, % Diff [2]: −6.15%
- TP, total protein, % Diff [2]: −4.7%
- UREA, urea, % Diff [2]: −10.39%
- WBC, white blood cell, % Diff [2]: −8.73%
- sGLU, glucose, % Diff [2]: −17.32%
- #BASO, basophils, absolute, % Diff [3]: −16.67%
- #EOS, eosinophils, absolute, % Diff [3]: 0.00%
- #LYMP, lymphocytes, absolute, % Diff [3]: −9.36%
- #MONO, monocytes, absolute, % Diff [3]: 16.44%
- #NEUT, neutrophils, absolute, % Diff [3]: 53.55%
- #RET, reticulocytes, absolute, % Diff [3]: 88.0%
- % BASO, basophils, percent, % Diff [3]: 50.0%
- % EOS, eosinophils, percent, % Diff [3]: 4.2%
- % LYMP, lymphocytes, percent, % Diff [3]: −5.5%
- % MONO, monocytes, percent, % Diff [3]: 22.4%
- % NEUT, neutrophils, percent, % Diff [3]: 51.0%
- % RET, reticulocytes, percent, % Diff [3]: 106.89%
- ALB, albumin, % Diff [3]: −0.2%
- ALP, alkaline phosphatase, % Diff [3]: −21%
- ALT, alanine aminotransferase, % Diff [3]: −4%
- AST, aspartate aminotransferase, % Diff [3]: −17%
- BIL-T, total bilirubin, % Diff [3]: −7.76%
- CK, creatine kinase, % Diff [3]: −39%
- CRE, creatinine, % Diff [3]: 0%
- Ca, calcium, % Diff [3]: −1.38%
- Cl, chloride, % Diff [3]: 1%
- GLB, globulin, % Diff [3]: −2.7%
- HCT, hematocrit, % Diff [3]: −3.9%
- HGB, hemoglobin, % Diff [3]: −5.7%
- K, potassium, % Diff [3]: −4.8%
- MCH, mean corpuscular hemoglobin, % Diff [3]: 1.8%
- MCHC, mean corpuscular hemoglobin concentration, % Diff [3]: −1.6%
- MCV, mean corpuscular volume, % Diff [3]: 3.3%
- MPV, mean platelet volume, % Diff [3]: 2.7%
- Na, sodium, % Diff [3]: 1%
- PLT, platelet count, % Diff [3]: 18%
- RBC, red blood cell, % Diff [3]: −6.90%
- RDW, RBC distribution width, % Diff [3]: 19.2%
- TCHO, total cholesterol, % Diff [3]: 12.47%
- TG, triglyceride, % Diff [3]: −1.54%
- TP, total protein, % Diff [3]: −1.1%
- UREA, urea, % Diff [3]: −22.22%
- WBC, white blood cell, % Diff [3]: −3.78%
- #BASO, basophils, absolute, % Diff [4]: −50.00%
- #EOS, eosinophils, absolute, % Diff [4]: −32.35%
- #LYMP, lymphocytes, absolute, % Diff [4]: −37.76%
- #MONO, monocytes, absolute, % Diff [4]: −12.33%
- #NEUT, neutrophils, absolute, % Diff [4]: 9.22%
- #RET, reticulocytes, absolute, % Diff [4]: 72.0%
- % BASO, basophils, percent, % Diff [4]: 16.7%
- % EOS, eosinophils, percent, % Diff [4]: 4.2%
- % LYMP, lymphocytes, percent, % Diff [4]: −6.3%
- % MONO, monocytes, percent, % Diff [4]: 46.9%
- % NEUT, neutrophils, percent, % Diff [4]: 58.8%
- % RET, reticulocytes, percent, % Diff [4]: 96.48%
- ALB, albumin, % Diff [4]: −2.7%
- ALP, alkaline phosphatase, % Diff [4]: −16%
- ALT, alanine aminotransferase, % Diff [4]: 122%
- AST, aspartate aminotransferase, % Diff [4]: 106%
- BIL-T, total bilirubin, % Diff [4]: 54.23%
- CK, creatine kinase, % Diff [4]: 6%
- CRE, creatinine, % Diff [4]: 2%
- Ca, calcium, % Diff [4]: −3.66%
- Cl, chloride, % Diff [4]: 2%
- GLB, globulin, % Diff [4]: −7.2%
- HCT, hematocrit, % Diff [4]: −3.4%
- HGB, hemoglobin, % Diff [4]: −3.4%
- K, potassium, % Diff [4]: 1.8%
- MCH, mean corpuscular hemoglobin, % Diff [4]: 3.2%
- MCHC, mean corpuscular hemoglobin concentration, % Diff [4]: 0.1%
- MCV, mean corpuscular volume, % Diff [4]: 3.0%
- MPV, mean platelet volume, % Diff [4]: 0.3%
- Na, sodium, % Diff [4]: 1%
- P, inorganic phosphorus, % Diff [4]: −8.41%
- PLT, platelet count, % Diff [4]: 16%
- RBC, red blood cell, % Diff [4]: −6.04%
- RDW, RBC distribution width, % Diff [4]: 26.3%
- TCHO, total cholesterol, % Diff [4]: −9.02%
- TG, triglyceride, % Diff [4]: 10.00%
- TP, total protein, % Diff [4]: −4.4%
- UREA, urea, % Diff [4]: 18.06%
- WBC, white blood cell, % Diff [4]: −33.69%
- sGLU, glucose, % Diff [4]: −19.47%
- ALB, albumin, Mean [5]: 33.3 g/L
- ALP, alkaline phosphatase, Mean [5]: 146 U/L
- ALT, alanine aminotransferase, Mean [5]: 42 U/L
- AST, aspartate aminotransferase, Mean [5]: 100 U/L
- BIL-T, total bilirubin, Mean [5]: 2.14
- CK, creatine kinase, Mean [5]: 260* U/L
- CRE, creatinine, Mean [5]: 19 µmol/L
- Ca, calcium, Mean [5]: 2.44 mmol/L
- GLB, globulin, Mean [5]: 22.1 g/L
- K, potassium, Mean [5]: 4.9 mmol/L
- Na, sodium, Mean [5]: 143 mmol/L
- P, inorganic phosphorus, Mean [5]: 2.39 mmol/L
- TCHO, total cholesterol, Mean [5]: 2.18*** mmol/L
- TG, triglyceride, Mean [5]: 0.36 mmol/L
- TP, total protein, Mean [5]: 55.5 g/L
- UREA, urea, Mean [5]: 6.25 mmol/L
- sGLU, glucose, Mean [5]: 10.72 mmol/L
- ALB, albumin, % Diff [6]: −3.2%
- ALP, alkaline phosphatase, % Diff [6]: −9%
- ALT, alanine aminotransferase, % Diff [6]: 19%
- AST, aspartate aminotransferase, % Diff [6]: −27%
- BIL-T, total bilirubin, % Diff [6]: 25.44%
- CK, creatine kinase, % Diff [6]: −51%
- CRE, creatinine, % Diff [6]: −2%
- Ca, calcium, % Diff [6]: 1.66%
- Cl, chloride, % Diff [6]: 1%
- GLB, globulin, % Diff [6]: −6.0%
- K, potassium, % Diff [6]: −2.0%
- Na, sodium, % Diff [6]: 1%
- P, inorganic phosphorus, % Diff [6]: −4.02%
- TCHO, total cholesterol, % Diff [6]: 69.94%
- TG, triglyceride, % Diff [6]: 18.54%
- TP, total protein, % Diff [6]: −4.3%
- UREA, urea, % Diff [6]: −4.56%
- sGLU, glucose, % Diff [6]: −1.42%
- MCH % Diff (male rats, Group 2, 3 mg/kg/wk): −3.4%
- ALB, albumin, % Diff [7]: −1.0%
- ALP, alkaline phosphatase, % Diff [7]: −30%
- ALT, alanine aminotransferase, % Diff [7]: 34%
- AST, aspartate aminotransferase, % Diff [7]: −24%
- BIL-T, total bilirubin, % Diff [7]: 8.21%
- CK, creatine kinase, % Diff [7]: −44%
- CRE, creatinine, % Diff [7]: −3%
- Ca, calcium, % Diff [7]: 0.08%
- Cl, chloride, % Diff [7]: 2%
- GLB, globulin, % Diff [7]: −6.5%
- K, potassium, % Diff [7]: 0.4%
- Na, sodium, % Diff [7]: 0%
- P, inorganic phosphorus, % Diff [7]: −4.34%
- TCHO, total cholesterol, % Diff [7]: 34.42%
- TG, triglyceride, % Diff [7]: 10.60%
- TP, total protein, % Diff [7]: −3.2%
- UREA, urea, % Diff [7]: −13.45%
- sGLU, glucose, % Diff [7]: −6.38%
- MCH % Diff (male rats, Group 3, 3.75/2.5 mg/kg/wk): −4.1%
- GLB, globulin, % Diff (male rats, Group 4, 4.69/2 mg/kg/wk oral, Day 15, N 2, vs vehicle Group 1): −39.2%
- MCH % Diff (male rats, Group 4, 4.69/2 mg/kg/wk): −1.7%

Where two headings read alike, the source gives them in different places. Marks after values point to notes of the source that are not given here.
